The species named for the assay is Rattus norvegicus. As to the kind of experiment: Selectivity ratio of Ki for dopamine D2-like receptor in Sprague-Dawley rat caudate putamen to Ki for dopamine D3 receptor in Sprague-Dawley rat ventral striatum. Format: tissue-based.
In the case of `CCCN(CC[C@]1(O)C[C@@H](NC(=O)c2ccc3ccccc3c2)C1)C1CC1c1ccc(Cl)cc1` (mixture of isomers), the Ratio Ki is above 21000.

As to `CCCN(CC[C@]1(O)C[C@@H](NC(=O)c2ccc3ccccc3c2)C1)[C@@H]1C[C@H]1c1ccc(Cl)cc1`, the Ratio Ki is above 100000.

Regarding `CCCN(CC[C@]1(O)C[C@@H](NC(=O)c2ccc3ccccc3c2)C1)[C@H]1C[C@@H]1c1ccc(Cl)cc1`, the Ratio Ki was above 218.

These data come from ChEMBL document CHEMBL3259695 (J Med Chem, 2014).
